Earlier results in patent publication US20070010657A1, “Cytoplasmic dynein heavy chain 1 genes, expression products, non-human animal model uses in human neurological diseases” (priority 2002, published 2007).

Tested on: ALS diagnosed patients
Conditions: clinical use, background statement

Nc1nc2ccc(OC(F)(F)F)cc2s1 [Riluzole]
survival of ALS diagnosed patients: extend survival of ALS diagnosed patients for a few months
